{"source": "paper PMC11489250", "about": "“Optimized methods for measuring competitive binding of chemical substances to thyroid hormone distributor proteins transthyretin and thyroxine binding globulin” (Archives of Toxicology, 2024)", "origin": "cited, not measured here", "target": "T1, Human TTR (Homo sapiens, UniProt P02766)", "T1 construct": "Transthyretin (prealbumin, TTR) >95% from human plasma; purchased Sigma Aldrich (Zwijndrecht, The Netherlands); host or cells: human plasma", "design": "method as in Hamers et al. [2020]", "conditions": "FITC-T4 110 nM, human TTR 30 nM, 4 °C, 2 h; ref Hamers et al. [2020]; read-out: TTR literature Ki; cited from earlier work", "data": [{"smiles": "Oc1cc(Cl)ccc1Oc1ccc(Cl)cc1Cl", "note": "[Triclosan, triclosan]", "values": [{"measurement": "Ki", "result": 930, "unit": "nM"}]}]}
